Source: ChEMBL document CHEMBL1140306, “Cholinesterase inhibitors: xanthostigmine derivatives blocking the acetylcholinesterase-induced beta-amyloid aggregation” (J Med Chem, 2005)
pIC50: −log10 of the molar value.

The chains behind the UniProt entries cited, without tags or fusion partners. Where a name states a change or a piece, a line headed by the entry shows the natural chain unless it says otherwise.
UniProt P22303: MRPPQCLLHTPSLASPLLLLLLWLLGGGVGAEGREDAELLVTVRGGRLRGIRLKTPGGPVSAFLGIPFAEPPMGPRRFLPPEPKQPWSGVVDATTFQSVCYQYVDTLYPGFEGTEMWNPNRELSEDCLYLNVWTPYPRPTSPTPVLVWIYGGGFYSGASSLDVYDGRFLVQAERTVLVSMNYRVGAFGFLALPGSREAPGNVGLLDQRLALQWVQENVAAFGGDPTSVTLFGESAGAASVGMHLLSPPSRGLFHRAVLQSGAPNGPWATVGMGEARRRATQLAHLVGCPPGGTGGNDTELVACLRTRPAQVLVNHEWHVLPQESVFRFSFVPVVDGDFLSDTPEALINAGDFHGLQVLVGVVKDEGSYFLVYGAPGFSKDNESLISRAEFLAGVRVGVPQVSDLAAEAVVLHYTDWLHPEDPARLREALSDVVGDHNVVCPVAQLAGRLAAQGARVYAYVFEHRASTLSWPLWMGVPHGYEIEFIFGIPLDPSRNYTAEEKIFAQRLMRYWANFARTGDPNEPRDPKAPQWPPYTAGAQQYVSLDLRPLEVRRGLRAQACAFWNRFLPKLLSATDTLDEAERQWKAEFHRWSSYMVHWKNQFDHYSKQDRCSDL

Molecular target: Acetylcholinesterase (Homo sapiens, UniProt P22303)
Test: Inhibition of recombinant human AChE

With CNC(=O)Oc1cccc(CN(C)CCCCCCCOc2ccc3c(c2)OCC3=O)c1 the pIC50 was 5.79.
